Measured values published in ChEMBL document CHEMBL4706653, “Ultra-short lipopeptides against gram-positive bacteria while alleviating antimicrobial resistance” (Eur J Med Chem, 2021).
In brackets after ≈: the same amount, converted by molar mass.

Tests used:
Format in all cases: functional
[1] = tested on: Staphylococcus aureus; test: Antimicrobial activity against Staphylococcus aureus ATCC 25923 after 18 hrs in presence of CaCl2 by broth microdilution method
[2] = tested on: Staphylococcus aureus; test: Antimicrobial activity against methicillin-resistant Staphylococcus aureus 113 after 18 hrs by broth microdilution method
[3] = tested on: Staphylococcus aureus; test: Antimicrobial activity against Staphylococcus aureus ATCC 25923 after 18 hrs in presence of 5% serum by broth microdilution method
[4] = tested on: Staphylococcus aureus; test: Antimicrobial activity against Staphylococcus aureus ATCC 29213 after 18 hrs by broth microdilution method
[5] = tested on: Staphylococcus aureus; test: Antimicrobial activity against Staphylococcus aureus ATCC 25923 after 18 hrs in presence of MgCl2 by broth microdilution method
[6] = tested on: Staphylococcus aureus; test: Antimicrobial activity against Staphylococcus aureus ATCC 25923 after 18 hrs in presence of ZnCl2 by broth microdilution method
[7] = tested on: Staphylococcus aureus; test: Antimicrobial activity against Staphylococcus aureus ATCC 25923 after 18 hrs in presence of NH4Cl by broth microdilution method
[8] = tested on: Staphylococcus aureus; test: Antimicrobial activity against methicillin-resistant Staphylococcus aureus 75 after 18 hrs by broth microdilution method
[9] = tested on: Staphylococcus aureus; test: Antimicrobial activity against Staphylococcus aureus ATCC 25923 after 18 hrs in presence of FeCl3 by broth microdilution method
[10] = tested on: Staphylococcus epidermidis; test: Antimicrobial activity against Staphylococcus epidermidis ATCC 12228 after 18 hrs by broth microdilution method
[11] = tested on: Staphylococcus aureus; test: Antimicrobial activity against Staphylococcus aureus ATCC 25923 after 18 hrs in presence of 10% serum by broth microdilution method
[12] = tested on: Staphylococcus aureus; test: Antimicrobial activity against Staphylococcus aureus ATCC 25923 after 18 hrs in presence of NaCl by broth microdilution method
[13] = tested on: Staphylococcus aureus; test: Antimicrobial activity against Staphylococcus aureus ATCC 25923 after 18 hrs in presence of KCl by broth microdilution method
[14] = tested on: Staphylococcus aureus; test: Antimicrobial activity against Staphylococcus aureus ATCC 25923 after 18 hrs by broth microdilution method
[15] = tested on: Staphylococcus aureus; test: Antimicrobial activity against Staphylococcus aureus ATCC 25923 after 18 hrs in presence of 2.5% serum by broth microdilution method
[16] = tested on: Bacillus subtilis; test: Antimicrobial activity against Bacillus subtilis ATCC 23857 after 18 hrs by broth microdilution method

Structure (SMILES): CC[C@H](C)[C@H](NC(=O)CN)C(=O)NCC(=O)N[C@@H](C)C(=O)N[C@H](C(=O)N[C@@H](CC(C)C)C(=O)N[C@@H](CCCCN)C(=O)N[C@H](C(=O)N[C@@H](CC(C)C)C(=O)N[C@H](C(=O)N[C@H](C(=O)NCC(=O)N[C@@H](CC(C)C)C(=O)N1CCC[C@H]1C(=O)N[C@@H](C)C(=O)N[C@@H](CC(C)C)C(=O)N[C@H](C(=O)N[C@@H](CO)C(=O)N[C@@H](Cc1c[nH]c2ccccc12)C(=O)N[C@H](C(=O)N[C@@H](CCCCN)C(=O)N[C@@H](CCCNC(=N)N)C(=O)N[C@@H](CCCCN)C(=O)N[C@@H](CCCNC(=N)N)C(=O)N[C@@H](CCC(N)=O)C(=O)N[C@@H](CCC(N)=O)C(N)=O)[C@@H](C)CC)[C@@H](C)CC)[C@@H](C)O)[C@@H](C)O)C(C)C)C(C)C [MELITTIN]
- MIC [1]: 8 µM
- MIC [2]: 2 µM (≈ 5.69 µg/mL)
- MIC [3]: 8 µM
- MIC [4]: 4 µM (≈ 11.4 µg/mL)
- MIC [5]: 4 µM
- MIC [6]: 8 µM
- MIC [7]: 4 µM
- MIC [8]: 2 µM (≈ 5.69 µg/mL)
- MIC [9]: 8 µM
- MIC [10]: 4 µM (≈ 11.4 µg/mL)
- MIC [11]: 8 µM
- MIC [12]: 8 µM
- MIC [13]: 4 µM
- MIC [14]: 2 µM (≈ 5.69 µg/mL)
- MIC [15]: 4 µM
- MIC [16]: 1 µM (≈ 2.85 µg/mL)
